In patent US9561259B2, “Cyclosporin analogs” (priority 2010, dated 2017):

How the values were obtained:
Calcineurin = molecular target: T1, Calcineurin (Homo sapiens, UniProt Q08209); assay: Calcineurin phosphatase (CaN) assay without Cyp A; format: biochemical; details: read-out: CaN − Cyp A IC50
T1 construct: purchased Enzo Life Sciences BML-AK804
From the text: (§1) Calcineurin is a serine-threonine protein phosphatase that on activation dephosphorylates members of the nuclear factor of activated T cells (NFAT), which are important in T lymphocyte activation. Cs A bound to cyclophilin A (“Cyp A”) inhibits calcineurin activity, thus resulting in immunosuppressive effects. […] Calmodulin is also required for calcineurin activity and RII phosphopeptide is used as an efficient peptide substrate for calcineurin. We have modified the method to enable measurement of Cyp A-dependent and Cyp-A-independent inhibition of calcineurin through the addition of Cyp A in a 1:1 complex with the inhibitor. The detection of free phosphate released is based on the classic Malachite green assay. Enzo Life Sciences CaN Assay Kit: BML-AK804 […] inhibitor compounds were diluted in UPW in polypropylene low-binding 96 well plates at 5× the final assay concentration. […] Cs A inhibitor controls were also prepared to obtain a final concentration of 10 μM Cs A with and without 10 μM Cyp A. […] The assay plate was placed in an oven at 30° C. for 15 minutes to equilibrate to the reaction temperature. The reaction was started by the addition of 10 μl RH-peptide (0.15 mM final concentration). The reaction was allowed to proceed at 30° C. for a time period in which the reaction is linear for about 60 minutes. The reaction was then terminated by adding 100 μl of the Malachite Green reagent. The color was allowed to develop for 15-30 minutes at room temperature before the absorbance at 620 nm was measured using a plate reader (Molecular Devices—SpectraMax M5). The data were analyzed by subtracting ‘no Calcineurin blank’ from all the absorbance readings and plotting the background corrected absorbances against Log10 inhibitor concentration. A sigmoidal-dose response curve was fitted to the data using GraphPad Prism Software.

Calcineurin + Cyp A = molecular target: T2, Calcineurin + Cyp A (Homo sapiens, UniProt P62937+P63098+Q08209); assay: Calcineurin phosphatase (CaN) assay with Cyp A (1:1 complex with inhibitor); format: biochemical; details: read-out: CaN + Cyp A IC-50
T2 construct: purchased Enzo Life Sciences (kit); Sigma (Cyp A) BML-AK804; C3805
From the text: as §1

human recombinant Cyp A = molecular target: T3, human recombinant Cyp A (Homo sapiens, UniProt P62937); assay: Protease-free PPlase assay; format: biochemical; details: read-out: Cyp A IC-50 (nM) Protease Free-PPlase Assay; 2 nM enzyme, 60 μM SUC-AAPF-pNA, 10° C.
T3 construct: purchased Sigma C3805
Method: The protease-free PPlase assay measures the rate of cis to trans conversion of a peptide substrate catalyzed by the enzyme cyclophilin A. Addition of an inhibitor slows the catalyzed rate and a Ki value is obtained. Materials Assay Buffer:
35 mM HEPES pH 7.8, filtered through a 0.2 μm filter. 50 μM DTT was added prior to use each day and then the buffer was stored on ice.
human recombinant Cyp A (Sigma C3805) enzyme was diluted to 1 μM with enzyme dilution buffer (20 mM HEPES pH 7.8, 40% glycerol, 50 μM DTT and 1 μM BSA) and stored at −20° C.
SUC-AAPF-pNA (from Bachem AG, L-1400), 20 mg/ml prepared 0.5 M LiCl in trifluoroethanol.
All readings were taken with an Agilent 8453 Spectrophotometer which consists of a cuvette holder, stirrer and chiller to maintain a stirred cuvette temperature of 10.0±0.1° C. The temperature is monitored by the use of temperature probe. To prevent UV degradation of test compounds, the light below 290 nm was blocked using a glass slide in the light path. 1.5 ml of assay buffer was put into a 3 ml quartz cuvette and cooled to 10.0±0.1° C. while stirring (vigorous but not so fast as to produce cavitation). The inhibitor was diluted in 100% DMSO, and then added to the assay to a maximum final concentration of 0.5% DMSO in the assay. A blank spectrum was obtained, then 3 μL of enzyme was added (2 nM final concentration) and then 3 μL substrate (60 μM final concentration) added. The absorbance was measured at 330 nm for 300 s or 500 s for blank runs (NOTE: the substrate must be added in one quick injection and the measurements started immediately to minimize mixing errors).
A first order rate equation was fitted to the absorbance data, for each concentration of inhibitor, to obtain the rate constant (the first 10 to 15 seconds were excluded as mixing causes errors in this portion of curve). The catalytic rate was calculated from the enzymatic rate constant minus the background rate constant. An exponential curve was generated using the catalytic rate constants versus the inhibitor concentration to obtain the Ki value for the inhibitor.

[1] = Epimerization in MeOH at 50° C. (500 MHz NMR); details: methanol at 50° C., conversion measured by 500 MHz NMR

Substance | IC50 (Calcineurin) [µM] | IC50 (Calcineurin + Cyp A) [µM] | IC50 (human recombinant Cyp A) [nM] | Reduction in rate of epimerization (relative to [(R)-(3-diethylaminoethylthio-Sar]^3 cyclosporin A) at position 3 (α-carbon of the 3-position amino acid (sarcosine) of Cs scaffolds) [1]
[(R)-(3-ethylisopropylamino-propylthio)-Sar]^3 Cyclosporin A [Example 2] | 7.8 | 5.7 | 4.9 | >1,000
[(R)-(3-(4-methyl-piperazin-1-yl)-propylthio)-Sar]^3 Cyclosporin A [Example 3] | 8.6 | 3.9 | 2.8 | >1,000
[(R)-(3-morpholin-4-yl-propylthio)-Sar]^3 Cyclosporin A [Example 1] | 3.9 | 4.2 | 1.7 | >1,000
